Source: PubChem (National Center for Advancing Translational Sciences (NCATS))
uPA generation: inhibitors of cell surface uPA generation | 330,000 tested, 0.31% active | AID 540303 | cell surface uPA generation assay, qHTS | Potency, µM (doses to about 38.3 µM), for the others: at the highest dose activity change, negative = inhibition, actives largely listed as inhibitors; active = well fitted inhibition curve with a large enough effect; inconclusive = small, poorly fitted or top-dose-only effect; inactive = no such curve, though single readings can be large or run the other way; tested in mouse RAW 264.7 cells; also: potency is read from the fitted curve at half-maximal effect; % is scaled to controls: 0 for no effect and ±100 for the full control effect; nearly all actives have a fitted effect of over 55% in size
miR-21 reporter: miR-21 reporter, rising signal; Potency, µM (titrated, usually from 38.3 µM), without a hit: at the highest dose reporter change, positive = more light; AID 2288; 340,000 tested, under 10 active; HeLa miR-21 FLuc reporter, luciferase, 48 h; active = well fitted rising curve with a large enough effect; inconclusive = small, poorly fitted or top-dose-only effect; inactive = no such curve, though single readings can be large or run the other way;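 note: % of control where 0% means no effect; miR-21 action dims this reporter so a rising signal means less miR-21 action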
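HeLa cells stably expressing CMV-driven firefly luciferase with a downstream miR-21 binding sequence, endogenously expressing miR-21, were treated with titrations (up to about 40uM final) for 48 hours at 37 degree Celsius. Luciferase luminescence was read after lysis.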
TDP1 cell noCPT: qHTS for Inhibitors of human tyrosyl-DNA phosphodiesterase 1 (TDP1): qHTS in cells in absence of CPT; DT40 Tdp1-/- hTDP1 cells, no CPT, ATP luminescence, 48 h; Potency, µM (series often up to 46.2 µM), inactives show top-dose activity change, negative = growth inhibition, usual class: inhibitors; 420,000 tested, 15% active; also: potency is read from the fitted curve at half-maximal effect; % is scaled to controls: 0 for no effect and ±100 for the full control effect; nearly all actives have a fitted effect of over 55% in size
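No-CPT arm: Tdp1-/-;hTDP1 DT40 cells (400/well) plus compounds, incubated ≥48 hr at 37 °C. Readout CellTiter-Glo luminescence.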
TDP1 cell CPT: growth inhibition of DT40 Tdp1-/-;hTDP1 cells with camptothecin (screen for TDP1 inhibitors) | Potency, µM (doses to about 46.2 µM), without a hit: at the highest dose activity change, negative = growth inhibition, most hits filed as inhibitors | AID 686979 | 420,000 tested, 12% active | chicken DT40 Tdp1-/-;hTDP1 cells + 20 nM CPT, ATP luminescence, 48 h; also: potency is read from the fitted curve at half-maximal effect; % is scaled to controls: 0 for no effect and ±100 for the full control effect; nearly all actives have a fitted effect of over 55% in size
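Chicken DT40 Tdp1-/- cells complemented with human TDP1, 400 cells/well, exposed to compounds plus 20 nM camptothecin for at least 48 h at 37 C; viability read as ATP content by CellTiter-Glo luminescence.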
TDP1 inh: TDP1 (human) enzyme inhibition; Potency, µM (top dose mostly 130 µM), inactives show at the highest dose activity change, negative = inhibition, usual class: inhibitors; Q9NUW8; 350,000 tested, 0.28% active; recombinant TDP1, AlphaScreen DNA substrate cleavage; AID 485290; also: potency is read from the fitted curve at half-maximal effect; % is scaled to controls: 0 for no effect and ±100 for the full control effect; nearly all actives have a fitted effect of over 40% in size
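AlphaScreen read-out: signal falls as enzyme removes the 3' tyrosine-FITC from a 5'-biotinylated DNA oligo (15 nM, 5 min, RT). Enzyme was E. coli-made recombinant Tdp1 at 1 nM, exposed to compound for 15 min beforehand; beads 10 ug/ml, 10 min.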
The depositor's hits bear a star; u = inconclusive; x = no result; [ ] = remark or other dose. Compounds with a hit are over-represented: about 16% of the library has one in this group of screens. Unless noted, calls follow the shape of the dose curve; as a rule, active = well fitted curve in the direction sought with a large enough effect; inconclusive = small, poorly fitted or top-dose-only effect, or another doubt; inactive = no such curve, though single readings can be large; an effect the other way counts as inactive or inconclusive.

No.	SMILES	uPA generation	miR-21 reporter	TDP1 cell noCPT
1	Nc1ccccc1C=C1Cc2ccccc2C1=O	-11.7%	x	-26.1%
2	O=C1NC(=O)/C(=C\c2ccccc2OCc2ccccc2)S1	6.0%	-0.1%	-12.7%
3	O=C(O)c1cn(-c2ccc(N3CCCC3)c(F)c2)c2c(F)c(F)c(F)cc2c1=O	0.2%	-3.2%	u
4	COc1cccc(C(=O)OCC(=O)c2ccc(Br)s2)c1OC	-27.5%	x	0.3%
5	Cc1ccccc1Cn1ccc(NC(=O)c2cnn3c2NC(c2ccccc2)CC3C(F)(F)F)n1 (centres undefined)	x	2.3%	u
6	Cc1cc(C)n2nc(SCc3ccccc3C(=O)O)nc2n1	3.6%	-1.5%	21.5%
7	O=C(c1cccnc1)N1C2CCC1CC(O)(c1ccc(F)cc1)C2 (centres undefined)	6.6%	0.7%	-1.5%
8	OC1(c2ccc(OC(F)F)cc2)CSC(=Nc2cccnc2)N1C1CC1 (centres undefined)	-8.1%	22.5%	16.4µM*
9	Cc1ccc(NC(=O)C(=Cc2ccc(C(=O)O)cc2)C(=O)Nc2ccc(C)cc2C)c(C)c1	u	u	2.91µM*
10	NC(=O)C1CCN(c2ccnc3cc(Cl)ccc23)CC1	10.9%	1.5%	4.8%

No.	TDP1 cell CPT	TDP1 inh
1	10.5%	x
2	-2.4%	1.3%
3	u	-2.7%
4	-17.0%	-5.1%
5	u	5.7%
6	-2.4%	x
7	-1.7%	0.0%
8	20.6µM*	8.0%
9	5.17µM*	2.8%
10	2.3%	2.6%

The listing continues:
No.	SMILES	uPA generation	miR-21 reporter	TDP1 cell noCPT
11	COc1cccc(Cl)c1NC(=O)N1CCN(c2cc(C)nc3ccccc23)CC1	-4.2%	-1.8%	u
12	CCOc1ccccc1N1CCN(C(=O)Nc2ccc(Cl)c(Cl)c2)CC1	x	-9.1%	x
13	COc1ccc(-c2csc(N3CCN(c4cc(C)nc5ccccc45)CC3)n2)cc1OC	-6.6%	u	14.6µM*
14	COc1cccc(Cl)c1NC(=O)N1CCN(c2ccnc3cc(Cl)ccc23)CC1	17.0%	4.7%	23.1µM*
15	O=C(CCl)N1CCN(C(=O)C2COc3ccccc3O2)CC1 (centres undefined)	-13.4%	x	3.66µM*
16	COc1ccc(S(=O)(=O)N2CCCCC2)cc1NC(=O)c1ccc2c(c1)OCO2	0.5%	-12.2%	14.6µM*
17	COc1ccc(S(=O)(=O)N2CCN(C(=O)C3COc4ccccc4O3)CC2)cc1 (centres undefined)	-17.7%	x	u
18	COc1ccc(S(=O)(=O)N2CCCCC2)cc1NC(=O)C1COc2ccccc2O1 (centres undefined)	-9.5%	x	23.1µM*
19	Cc1ccc2cc(CN(Cc3ccco3)C(=O)c3ccco3)c3nnnn3c2c1	-3.2%	9.0%	u
20	Cc1ccc(SCC(=O)Nc2ccc(N3CCOCC3)cc2)c(C)c1	-6.7%	7.3%	-17.6%

No.	TDP1 cell CPT	TDP1 inh
11	16.4µM*	2.6%
12	x	3.1%
13	14.6µM*	5.4%
14	u	6.5%
15	u	0.1%
16	u	3.0%
17	u	3.55µM*
18	23.1µM*	-20.6%
19	u	19.9%
20	-0.1%	-2.5%

The results go on.
No.	SMILES	uPA generation	miR-21 reporter	TDP1 cell noCPT
21	CCOc1ccc(OCC)c(S(=O)(=O)NCc2ccccc2)c1	1.2%	6.4%	-18.4%
22	COc1ccc(OC)c(NS(=O)(=O)c2ccc(NC(=O)C3COc4ccccc4O3)cc2)c1 (centres undefined)	-11.5%	22.3%	18.4µM*
23	COc1ccc2c(c1)OC[C@H]1[C@H]2N2C(=O)CN(CC3CCCO3)C(=O)[C@@]2(C)[C@H]1c1ccccc1 (some centres undefined)	2.0%	x	-16.6%
24	CCN1C(=O)[C@H]2[C@@H](c3ccc(-c4cc(C(C)=O)cs4)cc3)N3CCCC[C@@]3(C(=O)OC)[C@H]2C1=O	4.1%	x	18.4µM*
25	CCN1C(=O)[C@H]2[C@@H](c3ccc(-c4cc(C(C)=O)cs4)cc3)N3CCC[C@@]3(C(=O)OC)[C@H]2C1=O	2.1%	x	23.1µM*
26	CCCN1CCC(NC(=O)Cc2ccccc2OC)CC1	0.9%	-7.8%	4.1%
27	CS(=O)(=O)N1CCc2cc(C(=O)Nc3ccc(COCC(F)(F)F)cc3)ccc21	-11.5%	19.0%	u
28	CC(C)c1ccc(NC(=O)c2ccc3c(c2)CCN3S(C)(=O)=O)cc1	-17.8%	20.1%	8.2µM*
29	CS(=O)(=O)N1CCCc2cc(C(=O)Nc3cccc(C(F)(F)F)c3)ccc21	x	u	18.4µM*
30	CC1(C)S[C@@H]2[C@H](NC(=O)C(N)c3ccccc3)C(=O)N2[C@H]1C(=O)OC1OC(=O)c2ccccc21 (some centres undefined)	x	x	-25.0%[21.1 µM]

No.	TDP1 cell CPT	TDP1 inh
21	-1.3%	x
22	14.6µM*	4.5%
23	-32.7%	0.6%
24	u	-3.8%
25	u	-0.5%
26	1.1%	3.6%
27	18.4µM*	x
28	20.6µM*	x
29	u	0.0%
30	u	x

Additional results follow.
No.	SMILES	uPA generation	miR-21 reporter	TDP1 cell noCPT
31	CC1(C)S[C@@H]2[C@H](NC(=O)[C@H](N)c3ccccc3)C(=O)N2[C@H]1C(=O)OC1OC(=O)c2ccccc21 (some centres undefined)	-5.2%	x	8.2µM*
32	Cc1ccc(C)c(NS(=O)(=O)c2cc3c(cc2Cl)NC(=O)CO3)c1	x	2.1%	u
33	C/C(=N\N=C(N)N)c1ccc(Cl)cc1Cl	-7.0%	0.2%	16.4µM*
34	C/C(=N\N=C(N)N)c1cccc(Cl)c1	-4.7%	6.1%	8.2µM*
35	C/C(=N\O)c1ccc(Cl)cc1Cl	-1.4%	-0.7%	-11.6%
36	Cc1nc([N+](=O)[O-])cn1CC(=O)Nc1ccc(F)c(Cl)c1	-0.6%	13.7%	-3.0%
37	CCC(C)(C)n1nnnc1C(c1ccccc1F)N1CCC(C(N)=O)CC1 (centres undefined)	1.8%	-0.6%	-0.8%
38	COc1ccc(N2C(=O)NC(NC(=O)c3ccncc3)(C(F)(F)F)C2=O)cc1 (centres undefined)	1.4%	-3.3%	-21.8%
39	CCCCN(C=O)c1c(CC)nc2c(OCc3ccc(C(F)(F)F)cc3)cccn12	x	x	11.6µM*
40	CCc1nc2c(OCc3ccc(C(=O)N(C)C)cc3)cccn2c1N(C=O)Cc1ccccc1	x	x	-16.5%

No.	TDP1 cell CPT	TDP1 inh
31	11.6µM*	x
32	u	5.2%
33	8.2µM*	0.0%
34	16.4µM*	-7.2%
35	5.1%	2.9%
36	-3.1%	x
37	13.6%	0.0%
38	2.4%	-2.1%
39	11.6µM*	x
40	u	x

Entries of single compounds as entered above.
C/C(=N\N=C(N)N)c1cccc(Cl)c1 is listed as uPA generation = -4.7%; miR-21 reporter = 6.1%; TDP1 cell noCPT = 8.2µM*; TDP1 cell CPT = 16.4µM*; TDP1 inh = -7.2%
CCc1nc2c(OCc3ccc(C(=O)N(C)C)cc3)cccn2c1N(C=O)Cc1ccccc1 is listed as uPA generation = x; miR-21 reporter = x; TDP1 cell noCPT = -16.5%; TDP1 cell CPT = u; TDP1 inh = x

Continuation.
No.	SMILES	uPA generation	miR-21 reporter	TDP1 cell noCPT
41	CCc1nc2c(OCc3ccc(C(F)(F)F)cc3)cccn2c1N(C=O)Cc1ccc(OC)cc1	x	x	16.4µM*
42	COC(OC)c1ccnc(-c2ccc(OC(=O)c3cccs3)cc2)n1	-2.3%	-16.1%	-4.6%
43	O=C(/C=C/c1ccc([N+](=O)[O-])cc1)Nc1cccc(C(=O)Nc2ccccc2C(=O)O)c1	-17.1%	8.6%	u
44	Cc1ccc(Sc2ccc(CN3CCCCC3)cc2[N+](=O)[O-])cc1	-10.5%	5.5%	u
45	O=C(OCn1ncc(Cl)c(Cl)c1=O)c1ccc(C(F)(F)F)cc1	-10.8%	1.8%	5.8µM*

No.	TDP1 cell CPT	TDP1 inh
41	20.6µM*	x
42	-1.1%	1.2%
43	u	x
44	18.4µM*	x
45	2.91µM*	-8.6%
